“And” between values parts separate entries of the source, which are not always exact repeats. Equal entries are not always repeated. Where two headings read alike, the source gives them in different places. Peptide text beside a SMILES is read from it. * marks the point of attachment. Cbz = O=C(OCc1ccccc1)*
System: mTORC1 activity (pS6) in Tsc2-sh hippocampal neurons
Experiment: mTORC1 high-content screen (mTORC1^HCA) with the Biomol collection library
[1] = Z-score of percent GFP+pS6+ neurons in compound-treated Tsc2-knockdown wells, DIV20, Biomol library screen, replica 1
[2] = Z-score of percent GFP+pS6+ neurons in compound-treated Tsc2-knockdown wells, DIV20, Biomol library screen, replica 2
[3] = Z-score of percent GFP+pS6+ neurons in compound-treated Tsc2-knockdown wells, DIV20, Biomol library, replica 1
[4] = Z-score of percent GFP+pS6+ neurons in compound-treated Tsc2-knockdown wells, DIV20, Biomol library, replica 2

| Compound | T2 Zscore (Replica 1) | T2 Zscore (Replica 2) | other results |
| --- | --- | --- | --- |
| N#Cc1nn(-c2c(Cl)cc(C(F)(F)F)cc2Cl)c(N)c1[S+]([O-])C(F)(F)F (stereo not drawn) [Fipronil] | 1.475 | 0.08261 |  |
| O=C(O)c1ccccc1Nc1cccc(C(F)(F)F)c1 [Flufenamic acid] |  |  | T2 Zscore (Replica 1) [1]: 0.8655; T2 Zscore (Replica 2) [2]: 0.1241 |
| Cl.Cl.Fc1ccc(C(c2ccc(F)cc2)N2CCN(C/C=C/c3ccccc3)CC2)cc1 [Flunarizine • 2HCl] | 0.4218 and 0.4911 | 0.7448 and 1.411 |  |
| C=C[C@@]1(C)CC(=O)[C@]2(O)[C@@]3(C)[C@@H](O)CCC(C)(C)[C@@H]3[C@H](O)[C@H](OC(C)=O)[C@@]2(C)O1 [Forskolin] |  |  | T2 Zscore (Replica 1) [3]: 1.606; T2 Zscore (Replica 2) [4]: 0.7505 |
| CCCC[C@@H](C)[C@@H](OC(=O)C[C@@H](CC(=O)O)C(=O)O)[C@H](C[C@@H](C)C[C@H](O)CCCC[C@@H](O)C[C@H](O)[C@H](C)N)OC(=O)C[C@@H](CC(=O)O)C(=O)O [Fumonisin B1] | −0.2394 | 0.6495 |  |
| N#Cc1c(-c2ccccc2)no[n+]1[O-] [Furoxan] |  |  | T2 Zscore (Replica 1) [1]: 0.7022; T2 Zscore (Replica 2) [2]: −0.08245 |
| CN(C)CCCn1cc(C2=C(c3c[nH]c4ccccc34)C(=O)NC2=O)c2ccccc21 [GF-109203X] | 0.8424 | −0.07521 |  |
| CNC(=O)[C@H](Cc1c[nH]c2ccccc12)NC(=O)[C@@H](CC(=O)NO)CC(C)C [GM6001] |  |  | T2 Zscore (Replica 1) [1]: −0.3419; T2 Zscore (Replica 2) [2]: 0.886 |
| O=C1Nc2ccc(I)cc2/C1=C/c1cc(Br)c(O)c(Br)c1 [GW-5074] | 0.4102 | 0.5957 |  |
| O=C(Nc1ccccc1)c1cc([N+](=O)[O-])ccc1Cl [GW-9662] | −0.02422 | −0.2273 |  |
| CCCCC/C=C\C/C=C\C/C=C\CCCCC(=O)O [Gamma-linolenic acid (18:3 n-6)] | 0.5962 | −0.6758 |  |
| O=c1c(-c2ccc(O)cc2)coc2cc(O)cc(O)c12 [Genistein] |  |  | T2 Zscore (Replica 1) [1]: 0.2561; T2 Zscore (Replica 2) [2]: −0.1193 |
| Cc1cnc(C(=O)NCCc2ccc(S(=O)(=O)NC(=O)NC3CCCCC3)cc2)cn1 [Glipizide] |  |  | T2 Zscore (Replica 1) [1]: 0.3811; T2 Zscore (Replica 2) [2]: 0.6916 |
| COc1ccc(Cl)cc1C(=O)NCCc1ccc(S(=O)(=O)NC(=O)NC2CCCCC2)cc1 [Glyburide] |  |  | T2 Zscore (Replica 1) [1]: −0.002266; T2 Zscore (Replica 2) [2]: 0.6739 |
| Cn1c2ccccc2c2c3c(c4c5ccccc5n(CCC#N)c4c21)CNC3=O [Go6976] |  |  | T2 Zscore (Replica 1) [1]: 0.2801; T2 Zscore (Replica 2) [2]: 1.338 |
| CC1(O)CC23CC(O)C4(O)C(CC(O)C4(C)C)C(C)(O)C2CCC1C3O (stereo not drawn) [Grayanotoxin III] | 0.9767 | −0.01702 |  |
| NC(N)=NCCNS(=O)(=O)c1cccc2cnccc12 [HA-1004] | −0.4193 | −0.3001 |  |
| COCc1cc(O)c(O)c(O)c1-c1c(COC)cc(O)c(O)c1O [HBDDE] | 1.214 | −0.04207 |  |
| CC(=O)OCOC(c1ccc2ccccc2c1)P(=O)(OCOC(C)=O)OCOC(C)=O (stereo not drawn) [HNMPA-(AM)3] | 1.37 | −0.2103 |  |
| NCCc1c[nH]cn1 [Histamine] |  |  | T2 Zscore (Replica 1) [3]: 1.285; T2 Zscore (Replica 2) [4]: 0.5348 |
| CNC(=O)[C@H]1O[C@@H](n2cnc3c(NCc4cccc(I)c4)ncnc32)[C@H](O)[C@@H]1O [IB-MECA] |  |  | T2 Zscore (Replica 1) [1]: 1.327; T2 Zscore (Replica 2) [2]: −0.3278 |
| CC(C)Cn1c(=O)n(C)c(=O)c2[nH]cnc21 [IBMX] | −0.6764 | −0.5116 |  |
| O=C1C=CC(=O)c2c(O)cccc21 [Juglone] |  |  | T2 Zscore (Replica 1) [1]: 0.843; T2 Zscore (Replica 2) [2]: 0.3308 |
| COC(=O)[C@@]1(O)C[C@H]2O[C@]1(C)n1c3ccccc3c3c4c(c5c6ccccc6n2c5c31)C(=O)NC4 [K252A, reference compound] | −2.515 | −2.779 | hit in mTORC1 screen (Z-score <−1.8 in both replicas): positive hits |
| CCCCCCOC(=O)[C@]1(O)C[C@@H]2O[C@@]1(C)n1c3ccccc3c3c4c(c5c6ccccc6n2c5c31)C(=O)NC4 [KT-5720] | −0.2105 | −0.686 |  |

| Compound | T2 Zscore (Replica 1) | T2 Zscore (Replica 2) | other results |
| --- | --- | --- | --- |
| COC(=O)[C@@H](N)CCCNC(=N)N[N+](=O)[O-] [L-NAME] |  |  | T2 Zscore (Replica 1) [1]: 0.01616; T2 Zscore (Replica 2) [2]: 0.3433 |
| CCCCCCCCCCCCCCCC(=O)N[C@@H](COP(=O)(O)O)C(=O)O [L-NASPA] | −0.2267 | −0.3736 |  |
| CCCCCCCCCCCCCC(=O)N[C@@H](C)[C@H](O)c1ccccc1 [L-erythro-MAPP] | 0.698 | −0.1457 |  |
| C/C(O)=C(\C#N)C(=O)Nc1cc(Br)ccc1Br [LFM-A13] | −0.8437 | 0.1668 |  |
| C/C1=C/C(=O)O[C@@H]2C[C@@H](CC[C@H](C)/C=C\CC1)O[C@@](O)([C@@H]1CSC(=O)N1)C2 [Latrunculin B] | −0.2506 | 0.8419 |  |
| O=C(O)c1cc(N(Cc2ccccc2O)Cc2cc(O)ccc2O)ccc1O [Lavendustin A] | 0.5301 | −0.1145 |  |
| CCCCC/C=C\CC1OC1CCCCCCCC(=O)O (stereo not drawn) [Leukotoxin A (9,10-EODE)] | −1.356 | −0.1116 |  |
| CCCCC/C=C\C\C=C/C=C/C=C/[C@@H](SC[C@H](N)C(=O)O)[C@@H](O)CCCC(=O)O [Leukotriene E4] |  |  | T2 Zscore (Replica 1) [3]: 1.061; T2 Zscore (Replica 2) [4]: 0.8339 |
| CC(=O)N[C@@H](CC(C)C)C(=O)N[C@@H](CC(C)C)C(=O)N[C@H](C=O)CCCNC(=N)N [Leupeptin] | 0.9139 | 0.8873 |  |
| CCN(CC)CC(=O)Nc1c(C)cccc1C.Cl.O [Lidocaine•HCl•H2O] | −0.5275 | 0.02272 |  |
| CC/C=C\C/C=C\C/C=C\CCCCCCCC(=O)O [Linolenic acid (18:3 n-3)] | 0.3774 | −0.4887 |  |
| CCCCC[C@H](O)/C=C/C=C\C=C\C=C\[C@@H](O)[C@@H](O)CCCC(=O)O [Lipoxin A4] |  |  | T2 Zscore (Replica 1) [1]: 1.262; T2 Zscore (Replica 2) [2]: 0.3044 |
| CN(C)C(=O)C(CCN1CCC(O)(c2ccc(Cl)cc2)CC1)(c1ccccc1)c1ccccc1.Cl [Loperamide•HCl] | 0.8171 | −1.394 |  |
| CCCCCCCCCCCCCCCCOC[C@@H](O)COP(=O)([O-])OCC[N+](C)(C)C [Lyso-PAF C16] | −0.3675 | −0.0761 |  |
| CC(C)[C@H](NC(=O)OCc1ccccc1)C(=O)N[C@H](C=O)Cc1ccccc1 [MDL-28170] (Cbz-Val-Phe-aldehyde) |  |  | T2 Zscore (Replica 1) [3]: 0.5982; T2 Zscore (Replica 2) [4]: 1.214 |
| CC(C)C[C@@H](C=O)NC(=O)[C@H](CC(C)C)NC(=O)[C@H](CC(C)C)NC(=O)OCc1ccccc1 [MG-132] (Cbz-Leu-Leu-Leu-aldehyde) | −1.117 | −2.179 |  |
| O=S(=O)(c1cccc2c(I)cccc12)N1CCCNCC1 [ML7] | 0.811 | 0.03825 |  |
| O=S(=O)(c1cccc2c(Cl)cccc12)N1CCCNCC1 [ML9] | 0.9512 | 0.2996 |  |
| Clc1cccc(Nc2nnc(-c3ccccc3)c3ccccc23)c1 [MY-5445] | −1.029 | −1.798 |  |
| CC1=C(CC/C(C)=C/CCC2=CC[C@H](C3=CC(=O)O[C@H]3O)O[C@H]2O)C(C)(C)CCC1 [Manoalide] | −0.2077 | 0.1854 |  |
| CCCC[C@@H](C)/C=C(C)/C=C(\C)C(=O)NC1=C[C@@](O)(/C=C/C=C/C=C/C(=O)NC2=C(O)CCC2=O)[C@@H]2O[C@@H]2C1=O [Manumycin A] | −0.4339 | −0.4213 |  |
| CCCCCCCC/C=C\C/C=C\C/C=C\CCCC(=O)O [Mead acid (20:3 n-9)] | 1.221 | −0.08644 |  |
| CCCCCCCC/C=C\C/C=C\C/C=C\CCCC(=O)NCCO [Mead ethanolamide] | 0.2396 | −2.455 |  |
| CN(Cc1cnc2nc(N)nc(N)c2n1)c1ccc(C(=O)N[C@@H](CCC(=O)O)C(=O)O)cc1 [Methotrexate] |  |  | T2 Zscore (Replica 1) [3]: 1.222; T2 Zscore (Replica 2) [4]: 0.6112 |

Reference: US20230218577A1, “USE OF HEAT SHOCK PROTEIN INHIBITORS FOR THE TREATMENT OF NEURODEVELOPMENTAL DISORDERS” (The Children's Medical Center Corporation, priority 2020, published 2023)
